Reference: US9676714B2, “Sulfonylindole derivatives and method for preparing the same” (Daewoong Pharmaceutical Co., Ltd., priority 2013, dated 2017)

Chains of the proteins cited; added tags and fusions are not shown.
UniProt P19156, whole entry: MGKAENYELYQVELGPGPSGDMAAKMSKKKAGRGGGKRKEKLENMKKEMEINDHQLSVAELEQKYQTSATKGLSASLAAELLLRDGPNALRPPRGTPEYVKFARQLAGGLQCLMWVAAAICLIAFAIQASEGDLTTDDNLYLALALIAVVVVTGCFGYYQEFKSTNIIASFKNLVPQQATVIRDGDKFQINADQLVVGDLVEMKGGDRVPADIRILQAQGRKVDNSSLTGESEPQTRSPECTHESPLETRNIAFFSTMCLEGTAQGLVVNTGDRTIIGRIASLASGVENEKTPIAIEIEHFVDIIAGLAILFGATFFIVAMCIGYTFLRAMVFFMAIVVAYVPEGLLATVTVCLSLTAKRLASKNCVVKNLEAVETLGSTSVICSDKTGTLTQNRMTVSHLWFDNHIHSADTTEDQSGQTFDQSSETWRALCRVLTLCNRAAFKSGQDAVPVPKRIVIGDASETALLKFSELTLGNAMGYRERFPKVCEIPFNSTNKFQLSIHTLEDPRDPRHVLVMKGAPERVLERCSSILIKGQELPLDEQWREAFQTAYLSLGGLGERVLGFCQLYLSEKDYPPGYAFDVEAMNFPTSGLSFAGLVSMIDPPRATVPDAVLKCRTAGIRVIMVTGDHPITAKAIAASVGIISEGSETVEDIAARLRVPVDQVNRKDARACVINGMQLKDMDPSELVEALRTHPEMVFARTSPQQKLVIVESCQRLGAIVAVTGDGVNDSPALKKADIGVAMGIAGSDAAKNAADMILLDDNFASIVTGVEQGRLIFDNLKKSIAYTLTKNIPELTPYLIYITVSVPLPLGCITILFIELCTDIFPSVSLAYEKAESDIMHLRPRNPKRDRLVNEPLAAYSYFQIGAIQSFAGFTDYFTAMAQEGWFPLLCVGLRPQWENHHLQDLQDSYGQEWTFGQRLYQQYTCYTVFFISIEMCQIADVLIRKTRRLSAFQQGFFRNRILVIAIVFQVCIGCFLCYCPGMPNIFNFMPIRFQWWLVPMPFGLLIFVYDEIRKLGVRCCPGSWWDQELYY
UniProt P18434, whole entry partner: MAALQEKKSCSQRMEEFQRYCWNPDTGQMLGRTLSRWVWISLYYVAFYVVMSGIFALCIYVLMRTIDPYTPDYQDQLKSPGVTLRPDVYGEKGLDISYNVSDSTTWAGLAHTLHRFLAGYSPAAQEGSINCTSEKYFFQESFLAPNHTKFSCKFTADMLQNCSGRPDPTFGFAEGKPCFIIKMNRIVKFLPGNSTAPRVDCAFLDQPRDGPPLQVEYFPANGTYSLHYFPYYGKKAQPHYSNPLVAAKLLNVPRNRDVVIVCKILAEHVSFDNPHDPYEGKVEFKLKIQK

Target: proton pump (H+/K+-ATPase) (Sus scrofa, UniProt P19156)
Assay: Measurement of inhibitory effects on proton pump (H+/K+-ATPase) activities
Conditions: hog gastric vesicles, K+-specific H+/K+-ATPase activity, Tris-HCl buffer pH 7.4, 37° C. for 40 minutes, malachite green Pi readout
Method: 1) Preparation of Gastric Vesicles
Gastric vesicles were prepared from hog stomach via centrifugal separation (Edd C. Rabon et al., Preparation of Gastric H^+,K^+-ATPase, Methods in enzymology, vol. 157 Academic Press Inc., (1988), pp. 649-654). The protein contents of the thus prepared gastric vesicles were quantitated by Bicinchoninic Acid (BCA) kit.
2) Measurement of Inhibitory Effects on Proton Pump (H^+/K^+-ATPase) Activities
The inhibitory effects of the compounds of the present invention against proton pump activities were measured using a 96-well plate. In this assay, the K^+-specific H^+/K^+-ATPase activities were calculated based on the difference between the H^+/K^+-ATPase activity in the presence of K^+ and that in the absence of K. In the 96-well plate, 0.5% dimethyl sulfoxide (DMSO) in buffer was added to the negative and positive control groups, and the diluted compounds of the present invention were added to the test groups. […] The amount of monophosphate (Pi) in the reaction was measured at 570 nm using a micro plate reader (FLUOstar Omega, BMG LABTECH). The inhibition rates (%) were determined from the activity values of control groups and those of test compounds at various concentrations, and the […] of the test compounds were calculated based on the respective inhibition value (%) using the Logistic 4-parameter function of Sigmaplot 8.0 program.

| Compound | IC50 (tested form: hydrochloride (drawing prints 2HCl)) [µM] | IC50 (tested form: hydrochloride (drawing prints 3HCl)) [µM] |
| --- | --- | --- |
| CNCc1cn(S(=O)(=O)c2cccnc2)c2cc(Oc3cc(Cl)ccc3[N+](=O)[O-])ccc12 | 2.13 | – |
| CNc1cn(S(=O)(=O)c2cccnc2)c2cc(Nc3ccc(C)cc3Cl)ccc12 | – | 1.47 |
